Experimental data reported in ChEMBL document CHEMBL6182948 (J Med Chem, 2025).

Columns and labels:
Cytochrome P450 1B1 = biological target: T1, Cytochrome P450 1B1 (Homo sapiens, UniProt Q16678); assay: Inhibition of human recombinant CYP1B1 using 7-ethoxyresorufin as substrate incubated under dark condition for 30 mins in presence of NADPH by EROD fluorescence assay; type: ADME
T1 sequence (Q16678 whole entry): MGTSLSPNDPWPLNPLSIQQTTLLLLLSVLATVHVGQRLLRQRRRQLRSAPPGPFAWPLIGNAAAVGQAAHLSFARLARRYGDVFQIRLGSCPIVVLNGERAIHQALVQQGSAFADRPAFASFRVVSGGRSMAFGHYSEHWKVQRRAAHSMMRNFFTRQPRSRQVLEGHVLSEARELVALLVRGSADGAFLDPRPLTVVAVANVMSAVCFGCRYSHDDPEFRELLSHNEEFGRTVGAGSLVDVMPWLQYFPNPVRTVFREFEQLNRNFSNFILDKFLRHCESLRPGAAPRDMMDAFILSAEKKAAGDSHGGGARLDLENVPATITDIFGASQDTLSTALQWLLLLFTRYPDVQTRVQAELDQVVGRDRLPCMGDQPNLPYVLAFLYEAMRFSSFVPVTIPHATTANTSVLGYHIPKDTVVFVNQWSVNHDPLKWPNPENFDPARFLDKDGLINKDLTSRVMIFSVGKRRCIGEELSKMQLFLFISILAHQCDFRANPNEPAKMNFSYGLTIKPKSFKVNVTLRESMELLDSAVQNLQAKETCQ

Cytochrome P450 1A1 = biological target: T2, Cytochrome P450 1A1 (Homo sapiens, UniProt P04798); assay: Inhibition of human recombinant CYP1A1 using 7-ethoxyresorufin as substrate incubated under dark condition for 15 mins in presence of NADPH by EROD fluorescence assay; type: ADME
T2 sequence (P04798 whole entry): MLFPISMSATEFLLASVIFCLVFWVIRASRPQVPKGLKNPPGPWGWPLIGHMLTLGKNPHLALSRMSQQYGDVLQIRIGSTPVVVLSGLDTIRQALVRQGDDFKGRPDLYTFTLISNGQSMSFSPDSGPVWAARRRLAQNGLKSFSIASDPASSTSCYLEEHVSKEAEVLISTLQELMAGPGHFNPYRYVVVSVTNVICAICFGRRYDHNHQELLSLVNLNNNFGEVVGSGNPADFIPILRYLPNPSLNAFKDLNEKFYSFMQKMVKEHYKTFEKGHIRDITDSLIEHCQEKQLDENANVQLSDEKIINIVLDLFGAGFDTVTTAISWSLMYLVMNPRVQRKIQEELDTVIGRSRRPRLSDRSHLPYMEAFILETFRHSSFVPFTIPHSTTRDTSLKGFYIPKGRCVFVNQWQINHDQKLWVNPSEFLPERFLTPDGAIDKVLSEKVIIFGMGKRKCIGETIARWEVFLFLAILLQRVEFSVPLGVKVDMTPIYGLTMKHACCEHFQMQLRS

With COc1cc(/C=C/c2ccc(OC)cc2OC)cc(OC)c1 the IC50 (Cytochrome P450 1B1) was 5.13 nM and the IC50 (Cytochrome P450 1A1) was 379 nM.
